Assay [1] in a line: NCI Yeast Anticancer Drug Screen. Data for the rad50 strain (AID 155).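 Also: 0% = growth of vehicle-only cultures of the same strain.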 As to conditions: S. cerevisiae rad50 strain growth inhibition; at 50.0 µM; hits give high values.
Assay [2] in a line: NCI Yeast Anticancer Drug Screen. Data for the mec2-1 strain (AID 157). Conditions: S. cerevisiae mec2-1 strain, at 50.0 µM, hits give high values.
Assay [3] is described as follows: NCI Yeast Anticancer Drug Screen. Data for the sgs1 mgt1 strain (AID 161).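 Also: 0% = growth of cultures given vehicle only.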 Conditions: S. cerevisiae sgs1 mgt1 strain, at 50.0 µM, hits give high values.
A short description of assay [4]: NCI Yeast Anticancer Drug Screen. Data for the cln2 rad14 strain (AID 165).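 Also: 0% = growth equal to vehicle treated cultures.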 Conditions: S. cerevisiae cln2 rad14 strain, at 50.0 µM, hits give high values.
The nature of assay [5]: NCI Yeast Anticancer Drug Screen. Data for the bub3 strain (AID 167). As to conditions: S. cerevisiae bub3 mutant strain, at 50.0 µM, hits give high values.
Assay [6] is described as follows: NCI Yeast Anticancer Drug Screen. Data for the mlh1 rad18 strain (AID 175). As to conditions: S. cerevisiae mlh1 rad18 strain growth inhibition; at 50.0 µM; hits give high values.

The entries are a selection whose mix differs from that of the whole data set. Some salts or complexes appear as unconnected parts, following the source record. Calls of active or inactive are those of the source. Rule as the data show it: active = growth inhibition above about 70%; inactive = the rest.

For the compound `O=P(Cl)(CCl)NC12CC3CC(CC(C3)C1)C2` (configuration not stated), the growth inhibition in assay [1] is inactive: -4.85%; in assay [2] it was inactive: -3%; in assay [3] it was inactive: -4.25%; in assay [4] it was inactive: -1.65%; in assay [5], inactive: -2.65%; in assay [6], inactive: 16.7%.
As to `C[N+]1(CCCCC[N+]2(C)CCCCCC2)CCCCCC1.O=[N+]([O-])c1cc([N+](=O)[O-])c(O)c([N+](=O)[O-])c1`, the growth inhibition is inactive: -6.3% in assay [1]; inactive: -2.65% in assay [2]; inactive: -9.9% in assay [3]; inactive: -11.5% in assay [4]; inactive: -4.9% in assay [5]; inactive: 0.1% in assay [6].
With `O=[N+]([O-])c1cc([N+](=O)[O-])cc([N+](=O)[O-])c1.c1ccc(CCc2cccc3c2ccc2ccccc23)cc1`, the growth inhibition was inactive: 10.9% in assay [1]; inactive: -2.1% in assay [2]; inactive: 9.45% in assay [3]; inactive: -18.3% in assay [4]; inactive: 48.6% in assay [5]; inactive: 12.6% in assay [6].
Take `Cc1cc(N(CCCl)CCCl)ccc1C1OCCO1.[C-]#[O+].[C-]#[O+].[C-]#[O+].[Cr]`: the growth inhibition in assay [1] was inactive: -14.5%; in assay [2], inactive: 20.1%; in assay [3], inactive: 17%; in assay [4], inactive: 27.6%; in assay [5], inactive: 8.6%; in assay [6] it was inactive: 37%.
For `N.N.N.N.N.[Cl-].[Co+3].n1n[n-]c(-c2nn[n-]n2)n1`, the growth inhibition in assay [1] is inactive: -0.45%; in assay [2], inactive: -2.05%; in assay [3], inactive: -0.15%; in assay [4], inactive: 21.7%; in assay [5], inactive: -3.1%; in assay [6] it was inactive: -3.1%.
With `N#C/C(=C\c1ccccc1Cc1ccccn1)c1ccccc1.O=[N+]([O-])c1cc([N+](=O)[O-])c(O)c([N+](=O)[O-])c1`, the growth inhibition in assay [1] was inactive: 44.2%; in assay [2], inactive: 10.4%; in assay [3] it was inactive: 57.5%; in assay [4] it was inactive: -2.55%; in assay [5], inactive: 20.9%; in assay [6], inactive: 22.1%.
Consider `O=[N+]([O-])c1cc([N+](=O)[O-])c(O)c([N+](=O)[O-])c1.c1cc(N=Nc2ccncc2)ccn1`, for which the growth inhibition is inactive: 6.65% in assay [1]; inactive: 11.7% in assay [2]; inactive: 38% in assay [3]; inactive: 26.8% in assay [4]; inactive: 13.5% in assay [5]; inactive: 14% in assay [6].
Consider `F[PH+](F)N(c1ccccc1)[PH+](F)F.F[PH+](F)N(c1ccccc1)[PH+](F)F.F[PH+](F)N(c1ccccc1)[PH+](F)F.[Cr]`, for which the growth inhibition is inactive: 30.9% in assay [1]; inactive: 14.2% in assay [2]; inactive: -5.25% in assay [3]; inactive: 13.2% in assay [4]; inactive: -9.8% in assay [5]; inactive: 19.2% in assay [6].
Take `CC(C)OP(C)(=O)O.[Eu]`: the growth inhibition in assay [1] was inactive: -6.75%; in assay [2], inactive: -10.3%; in assay [3], inactive: -1.7%; in assay [4], inactive: -29.6%; in assay [5] it was inactive: -3.45%; in assay [6], inactive: -9.05%.
`O=C(O)C1(O)c2ccccc2-c2ccccc21`: the growth inhibition in assay [1] is inactive: 35.1%; in assay [2], inactive: -0.3%; in assay [3], inactive: -19.9%; in assay [4], inactive: 9.95%; in assay [5] it was inactive: 20.4%; in assay [6], inactive: 17.9%.
As to `CC(C)CC(CC(C)C)NCCO.O=[N+]([O-])c1cc([N+](=O)[O-])c(O)c([N+](=O)[O-])c1`, the growth inhibition in assay [1] is inactive: 49.9%; in assay [2] it was inactive: 18.3%; in assay [3], inactive: 27.1%; in assay [4], inactive: -3%; in assay [5] it was inactive: 2.75%; in assay [6], inactive: 32.4%.
For the compound `Cc1ccc2ccc3ccc(C)c(C)c3c2c1C.O=[N+]([O-])c1cc([N+](=O)[O-])cc([N+](=O)[O-])c1`, the growth inhibition is active: 98.3% in assay [1]; active: 98.6% in assay [2]; active: 99.2% in assay [3]; active: 96.3% in assay [4]; active: 98.5% in assay [5]; active: 98.5% in assay [6].
Consider `O=[N+]([O-])c1cc([N+](=O)[O-])c2nonc2c1O`, for which the growth inhibition in assay [1] was inactive: 17.4%; in assay [2] it was inactive: 3.1%; in assay [3], inactive: 9.1%; in assay [4] it was inactive: -28.4%; in assay [5] it was inactive: -16.4%; in assay [6], inactive: 11.6%.
With `NC(=NCCO[N+](=O)[O-])N[N+](=O)[O-]`, the growth inhibition was inactive: -1.1% in assay [1]; inactive: -1.2% in assay [2]; inactive: -9.15% in assay [3]; inactive: -13.3% in assay [4]; inactive: -13.9% in assay [5]; inactive: 12.7% in assay [6].
`CCC(C)NCC(C)O.O=[N+]([O-])c1cc([N+](=O)[O-])c(O)c([N+](=O)[O-])c1`: the growth inhibition in assay [1] was inactive: 0.9%; in assay [2], inactive: 5.05%; in assay [3] it was inactive: -10.6%; in assay [4] it was inactive: -43.2%; in assay [5], inactive: -18.4%; in assay [6], inactive: 3.9%.
Consider `COC(=O)/C(=C\c1ccccc1)CN1CCCCC1C.O=[N+]([O-])c1cc([N+](=O)[O-])c(O)c([N+](=O)[O-])c1` (configuration not stated), for which the growth inhibition in assay [1] was inactive: 27.4%; in assay [2], inactive: -5.3%; in assay [3], inactive: 25.9%; in assay [4], inactive: -20.9%; in assay [5], inactive: 1%; in assay [6], inactive: 0.2%.
On to `CCCCC(CCCC)NCCO.O=[N+]([O-])c1cc([N+](=O)[O-])c(O)c([N+](=O)[O-])c1`, for which the growth inhibition in assay [1] was inactive: 33.8%; in assay [2], inactive: -9.35%; in assay [3] it was inactive: 16.6%; in assay [4], inactive: -27.6%; in assay [5], inactive: 1.15%; in assay [6], inactive: 6.25%.
